Test results: PMC12415777, “Dose-dependent modulation of hepatic cytochrome P450 enzymes by tenvermectin: implications for medication safety and combination therapy” (Frontiers in Veterinary Science, 2025)

Target: T1, CYP2C6 (Rattus norvegicus, UniProt P05178)
T1 construct: native enzyme in rat liver microsomes; diclofenac 4'-hydroxylation read-out
T1 sequence (P05178 1-490): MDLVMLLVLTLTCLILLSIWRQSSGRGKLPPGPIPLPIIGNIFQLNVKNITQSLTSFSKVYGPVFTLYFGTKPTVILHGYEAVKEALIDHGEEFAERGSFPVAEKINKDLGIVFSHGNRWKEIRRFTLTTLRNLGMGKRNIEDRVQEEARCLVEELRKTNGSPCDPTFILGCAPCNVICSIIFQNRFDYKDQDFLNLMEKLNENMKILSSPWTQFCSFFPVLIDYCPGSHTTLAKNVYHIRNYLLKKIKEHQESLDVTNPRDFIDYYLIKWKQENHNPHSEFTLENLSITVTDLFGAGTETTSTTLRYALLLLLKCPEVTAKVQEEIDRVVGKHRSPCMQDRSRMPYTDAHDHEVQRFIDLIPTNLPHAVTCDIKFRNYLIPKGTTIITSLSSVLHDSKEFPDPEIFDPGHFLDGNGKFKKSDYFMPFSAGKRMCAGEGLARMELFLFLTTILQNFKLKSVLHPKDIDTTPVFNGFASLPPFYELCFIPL
Test: Michaelis-Menten fit in rat liver microsomes, HPLC-MS/MS of […]'-hydroxydiclofenac
Format: biochemical
Conditions: NADPH regeneration system, 0.05 M Tris-HCl pH 7.4, 10 min

Structure (SMILES): O=C(O)Cc1ccccc1Nc1c(Cl)cccc1Cl [DF]
- Km: (C) diclofenac (DF) (CYP2C6)
